Data as given in patent US20240360179A1, “STAPLED PEPTIDES AND METHODS THEREOF” (FOG PHARMACEUTICALS, INC., priority 2021, published 2024).

Amino acid sequences for entries named in this document (tags omitted).
UniProt P35222, whole entry: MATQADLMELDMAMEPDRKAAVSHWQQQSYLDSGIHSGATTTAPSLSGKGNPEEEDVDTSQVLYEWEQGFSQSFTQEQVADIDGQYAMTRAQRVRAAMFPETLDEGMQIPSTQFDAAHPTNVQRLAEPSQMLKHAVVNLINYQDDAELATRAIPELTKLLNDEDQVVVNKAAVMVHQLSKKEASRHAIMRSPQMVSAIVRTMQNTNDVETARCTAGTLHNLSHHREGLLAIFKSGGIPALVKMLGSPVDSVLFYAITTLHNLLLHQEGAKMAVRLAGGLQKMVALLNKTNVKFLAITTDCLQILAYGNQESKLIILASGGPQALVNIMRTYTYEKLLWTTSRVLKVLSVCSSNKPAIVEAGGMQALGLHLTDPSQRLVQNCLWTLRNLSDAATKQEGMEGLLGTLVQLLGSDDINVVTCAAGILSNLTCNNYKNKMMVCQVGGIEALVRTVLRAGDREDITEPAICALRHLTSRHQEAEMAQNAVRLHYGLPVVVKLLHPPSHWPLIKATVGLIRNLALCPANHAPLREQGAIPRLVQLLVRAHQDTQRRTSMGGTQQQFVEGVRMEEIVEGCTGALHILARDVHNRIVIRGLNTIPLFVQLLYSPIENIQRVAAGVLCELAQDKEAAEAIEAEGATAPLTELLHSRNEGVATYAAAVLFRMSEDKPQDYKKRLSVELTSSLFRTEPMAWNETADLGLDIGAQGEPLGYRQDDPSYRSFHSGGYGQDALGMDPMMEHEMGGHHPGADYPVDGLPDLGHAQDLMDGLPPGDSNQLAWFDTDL

What follows are compounds tested against T1, full-length B-Catenin (Uniprot ID P35222) (Homo sapiens, UniProt P35222) (assay: biochemical). Conditions: beta-Catenin FP IC50 (nM), competition fluorescence polarization.
T1 construct: 10 nM full-length B-Catenin (Uniprot ID P35222)
Assay type: binding

IC50 [nM]	Compound
< 50	CCCC[C@@H]1NC(=O)[C@H](C)NC(=O)C(C)(C)NC(=O)[C@H](Cc2cccc(C(=O)O)c2)NC(=O)[C@H](CC(=O)O)NC(=O)C2(CCCC=CCCCOC(=O)N3CC[C@@]4(C3)NC(=O)[C@H](CCCCNC(=O)CC[C@@H](C(=O)N[C@@H](C)C(N)=O)NC(=O)[C@H](Cc3csc5ccccc35)NC(=O)[C@H](Cc3ccsc3)NC4=O)NC1=O)CCCC=CC[C@]1(CCCN1C(C)=O)C(=O)N[C@@H](CC(=O)O)C(=O)N[C@@H](CC(C)(C)C)C(=O)N2 (relative stereo) [I-362, Ac-PL3-Asp-Npg-B5-Asp-3COOHF-Aib-Ala-nLeu-Lys*3-PyrS2-3Thi-BztA-GlnR*3-Ala-NH2]
< 50	CC(=O)N1CCC[C@]12CC=CCCCC1(CCCC=CCCCOC(=O)N3CC[C@@]4(C3)NC(=O)[C@H](CCCCNC(=O)CC[C@@H](C(=O)N[C@@H](C)C(N)=O)NC(=O)[C@H](Cc3csc5ccccc35)NC(=O)[C@H](Cc3ccsc3)NC4=O)NC(=O)[C@H](Cc3ccc(Cl)cc3)NC(=O)[C@H](C)NC(=O)C(C)(C)NC(=O)[C@H](Cc3cccc(C(=O)O)c3)NC(=O)[C@H](CC(=O)O)NC1=O)NC(=O)[C@H](CC(C)(C)C)NC(=O)[C@H](CC(=O)O)NC2=O (single isomer, unassigned) [I-570, Ac-PL3-Asp-Npg-B5-Asp-3COOHF-Aib-Ala-4ClF-Lys*3-PyrS2-3Thi-BztA-GlnR*3-Ala-NH2]
< 50	CCCCC[C@@H]1NC(=O)[C@]23CCN(C2)C(=O)OCCCC=CCCCC2(CCCC=CC[C@]4(CCCN4C(C)=O)C(=O)N[C@@H](CC(=O)O)C(=O)N[C@@H](CC(C)(C)C)C(=O)N2)C(=O)N[C@@H](CC(=O)O)C(=O)N[C@@H](Cc2cccc(C(=O)O)c2)C(=O)NC(C)(C)C(=O)N[C@@H](C)C(=O)N[C@@H](Cc2ccccc2)C(=O)N[C@@H](CCCCNC(=O)CC[C@@H](C(=O)N[C@@H](C)C(N)=O)NC(=O)[C@H](Cc2csc4ccccc24)NC1=O)C(=O)N3 (relative stereo) [I-539, Ac-PL3-Asp-Npg-B5-Asp-3COOHF-Aib-Ala-Phe-Lys*3-PyrS2-hnLeu-BztA-GlnR*3-Ala-NH2]
< 50	CC(=O)N1CCC[C@]12CC=CCCCC1(CCCC=CCCCOC(=O)N3CC[C@@]4(C3)NC(=O)[C@H](CCCCNC(=O)CC[C@@H](C(=O)N[C@@H](C)C(N)=O)NC(=O)[C@H](Cc3csc5ccccc35)NC(=O)[C@H](Cc3cccs3)NC4=O)NC(=O)[C@H](Cc3ccccc3)NC(=O)[C@H](C)NC(=O)C(C)(C)NC(=O)[C@H](Cc3cccc(C(=O)O)c3)NC(=O)[C@H](CC(=O)O)NC1=O)NC(=O)[C@H](CC(C)(C)C)NC(=O)[C@H](CC(=O)O)NC2=O (relative stereo) [I-541, Ac-PL3-Asp-Npg-B5-Asp-3COOHF-Aib-Ala-Phe-Lys*3-PyrS2-2Thi-BztA-GlnR*3-Ala-NH2]

Second part, the compound before the results:

Compound	IC50 [nM]
CNC(=O)C[C@@H]1NC(=O)C2(CCCCCCCCOC(=O)N3CC[C@@]4(C3)NC(=O)[C@H](CCCCNC(=O)CC[C@@H](C(=O)N[C@@H](C)C(N)=O)NC(=O)[C@H](Cc3csc5ccccc35)NC(=O)[C@H](Cc3ccsc3)NC4=O)NC(=O)[C@H](Cc3ccccc3)NC(=O)[C@H](C)NC(=O)C(C)(C)NC(=O)[C@H](Cc3cccc(C(=O)O)c3)NC1=O)CCCCCC[C@]1(CCCN1C(C)=O)C(=O)N[C@@H](CC(=O)O)C(=O)N[C@@H](CC(C)(C)C)C(=O)N2 (relative stereo) [I-182, Ac-PL3-Asp-Npg-B5-MeAsn-3COOHF-Aib-Ala-Phe-Lys*3-PyrS2-3Thi-BztA-GlnR*3-Ala-NH2]	> 1000
CC(=O)N1CCC[C@]12CC=CCCCC1(CCCC=CCCCOC(=O)N3CC[C@@]4(C3)NC(=O)[C@H](CCCCNC(=O)CC[C@@H](C(=O)N[C@@H](C)C(N)=O)NC(=O)[C@H](Cc3csc5ccccc35)NC(=O)[C@H](Cc3ccccc3C(F)(F)F)NC4=O)NC(=O)[C@H](Cc3ccccc3)NC(=O)[C@H](C)NC(=O)C(C)(C)NC(=O)[C@H](Cc3cc(C(=O)O)cc(C(F)(F)F)c3)NC(=O)[C@H](CC(=O)O)NC1=O)NC(=O)[C@H](CC(C)(C)C)NC(=O)[C@H](CC(=O)O)NC2=O (relative stereo) [I-206, Ac-PL3-Asp-Npg-B5-Asp-5F3Me3COOHF-Aib-Ala-Phe-Lys*3-PyrS2-2F3MeF-BztA-GlnR*3-Ala-NH2]	< 50
CC(=O)N1CCC[C@]12CC=CCCCC1(CCCC=CCCCOC(=O)N3CC[C@@]4(C3)NC(=O)[C@H](CC(=O)NCCCC[C@@H](C(=O)N[C@@H](C)C(N)=O)NC(=O)[C@H](Cc3csc5ccccc35)NC(=O)[C@H](Cc3ccsc3)NC4=O)NC(=O)[C@H](Cc3ccccc3)NC(=O)[C@H](C)NC(=O)[C@H](C)NC(=O)[C@H](Cc3cccc(C(=O)O)c3)NC(=O)[C@H](CC(=O)O)NC1=O)NC(=O)[C@H](CC(C)(C)C)NC(=O)[C@H](CC(=O)O)NC2=O (relative stereo) [I-44, Ac-PL3-Asp-Npg-B5-Asp-3COOHF-Ala-Ala-Phe-AsnR*3-PyrS2-3Thi-BztA-Lys*3-Ala-NH2]	750 to 1000
CC(=O)N1CCC[C@]12CC=CCCCC1(CCCC=CCCCOC(=O)N3CC[C@@]4(C3)NC(=O)[C@H](CCCCNC(=O)CC[C@@H](C(=O)N[C@@H](C)C(N)=O)NC(=O)[C@H](Cc3csc5ccccc35)NC(=O)[C@H](Cc3ccccc3C(F)(F)F)NC4=O)NC(=O)[C@H](Cc3ccccc3)NC(=O)[C@H](C)NC(=O)[C@H](C)NC(=O)[C@H](CN(CC(=O)O)CC(F)(F)F)NC(=O)[C@H](CC(=O)O)NC1=O)NC(=O)[C@H](CC(C)(C)C)NC(=O)[C@H](CCO)NC2=O (single isomer, unassigned) [I-115, Ac-PL3-Hse-Npg-B5-Asp-TfeGA-Ala-Ala-Phe-Lys*3-PyrS2-2F3MeF-BztA-GlnR*3-Ala-NH2]	> 1000
CC(=O)N1CCC[C@]12CC=CCCCC1(CCCC=CCCCOC(=O)N3CC[C@@]4(C3)NC(=O)[C@H](CCCC(=O)N3CCC(CC3)C[C@@H](C(=O)N[C@@H](C)C(N)=O)NC(=O)[C@H](Cc3csc5ccccc35)NC(=O)[C@H](Cc3ccsc3)NC4=O)NC(=O)[C@H](Cc3ccccc3)NC(=O)[C@H](C)NC(=O)[C@H](C)NC(=O)[C@H](Cc3cccc(C(=O)O)c3)NC(=O)[C@H](CC(=O)O)NC1=O)NC(=O)[C@H](CC(C)(C)C)NC(=O)[C@H](CC(=O)O)NC2=O (relative stereo) [I-260, Ac-PL3-Asp-Npg-B5-Asp-3COOHF-Ala-Ala-Phe-hGlnR*3-PyrS2-3Thi-BztA-4PipA*3-Ala-NH2]	< 50
CC(=O)N1CCC[C@]12CC=CCCCC1(CCCC=CCCCOC(=O)N3CC[C@@]4(C3)NC(=O)[C@H](CCCCNC(=O)CC[C@@H](C(=O)N[C@@H](C)C(N)=O)NC(=O)[C@H](Cc3csc5ccccc35)NC(=O)[C@H](Cc3ccsc3)NC4=O)NC(=O)[C@H](Cc3ccccc3)NC(=O)[C@H](C)NC(=O)C(C)(C)NC(=O)[C@H](Cc3cccc(C(=O)O)c3)NC(=O)[C@H](CC(=O)O)NC1=O)NC(=O)[C@H](c1ccccc1)NC(=O)[C@H](CC(=O)O)NC2=O (relative stereo) [I-309, Ac-PL3-Asp-Phg-B5-Asp-3COOHF-Aib-Ala-Phe-Lys*3-PyrS2-3Thi-BztA-GlnR*3-Ala-NH2]	< 50
CC(=O)N1CCC[C@]12CC=CCCCC1(CCCC=CCCCOC(=O)N3CC[C@@]4(C3)NC(=O)[C@H](CCCCN(C(C)C)C(=O)CC[C@@H](C(=O)N[C@@H](C)C(N)=O)NC(=O)[C@H](Cc3csc5ccccc35)NC(=O)[C@H](Cc3ccsc3)NC4=O)NC(=O)[C@H](Cc3ccccc3)NC(=O)[C@H](C)NC(=O)[C@H](C)NC(=O)[C@H](Cc3cccc(C(=O)O)c3)NC(=O)[C@H](CC(=O)O)NC1=O)NC(=O)[C@H](CC(C)(C)C)NC(=O)[C@H](CC(=O)O)NC2=O (relative stereo) [I-190, Ac-PL3-Asp-Npg-B5-Asp-3COOHF-Ala-Ala-Phe-iPrLys*3-PyrS2-3Thi-BztA-GlnR*3-Ala-NH2]	< 50
